1 compound from ChEMBL document CHEMBL2424657, “Identification of the KDM2/7 histone lysine demethylase subfamily inhibitor and its antiproliferative activity” (J Med Chem, 2013) can be followed below.

The chains behind the UniProt entries cited, without tags or fusion partners. Where a name states a change or a piece, a line headed by the entry shows the natural chain unless it says otherwise.
UniProt P29375: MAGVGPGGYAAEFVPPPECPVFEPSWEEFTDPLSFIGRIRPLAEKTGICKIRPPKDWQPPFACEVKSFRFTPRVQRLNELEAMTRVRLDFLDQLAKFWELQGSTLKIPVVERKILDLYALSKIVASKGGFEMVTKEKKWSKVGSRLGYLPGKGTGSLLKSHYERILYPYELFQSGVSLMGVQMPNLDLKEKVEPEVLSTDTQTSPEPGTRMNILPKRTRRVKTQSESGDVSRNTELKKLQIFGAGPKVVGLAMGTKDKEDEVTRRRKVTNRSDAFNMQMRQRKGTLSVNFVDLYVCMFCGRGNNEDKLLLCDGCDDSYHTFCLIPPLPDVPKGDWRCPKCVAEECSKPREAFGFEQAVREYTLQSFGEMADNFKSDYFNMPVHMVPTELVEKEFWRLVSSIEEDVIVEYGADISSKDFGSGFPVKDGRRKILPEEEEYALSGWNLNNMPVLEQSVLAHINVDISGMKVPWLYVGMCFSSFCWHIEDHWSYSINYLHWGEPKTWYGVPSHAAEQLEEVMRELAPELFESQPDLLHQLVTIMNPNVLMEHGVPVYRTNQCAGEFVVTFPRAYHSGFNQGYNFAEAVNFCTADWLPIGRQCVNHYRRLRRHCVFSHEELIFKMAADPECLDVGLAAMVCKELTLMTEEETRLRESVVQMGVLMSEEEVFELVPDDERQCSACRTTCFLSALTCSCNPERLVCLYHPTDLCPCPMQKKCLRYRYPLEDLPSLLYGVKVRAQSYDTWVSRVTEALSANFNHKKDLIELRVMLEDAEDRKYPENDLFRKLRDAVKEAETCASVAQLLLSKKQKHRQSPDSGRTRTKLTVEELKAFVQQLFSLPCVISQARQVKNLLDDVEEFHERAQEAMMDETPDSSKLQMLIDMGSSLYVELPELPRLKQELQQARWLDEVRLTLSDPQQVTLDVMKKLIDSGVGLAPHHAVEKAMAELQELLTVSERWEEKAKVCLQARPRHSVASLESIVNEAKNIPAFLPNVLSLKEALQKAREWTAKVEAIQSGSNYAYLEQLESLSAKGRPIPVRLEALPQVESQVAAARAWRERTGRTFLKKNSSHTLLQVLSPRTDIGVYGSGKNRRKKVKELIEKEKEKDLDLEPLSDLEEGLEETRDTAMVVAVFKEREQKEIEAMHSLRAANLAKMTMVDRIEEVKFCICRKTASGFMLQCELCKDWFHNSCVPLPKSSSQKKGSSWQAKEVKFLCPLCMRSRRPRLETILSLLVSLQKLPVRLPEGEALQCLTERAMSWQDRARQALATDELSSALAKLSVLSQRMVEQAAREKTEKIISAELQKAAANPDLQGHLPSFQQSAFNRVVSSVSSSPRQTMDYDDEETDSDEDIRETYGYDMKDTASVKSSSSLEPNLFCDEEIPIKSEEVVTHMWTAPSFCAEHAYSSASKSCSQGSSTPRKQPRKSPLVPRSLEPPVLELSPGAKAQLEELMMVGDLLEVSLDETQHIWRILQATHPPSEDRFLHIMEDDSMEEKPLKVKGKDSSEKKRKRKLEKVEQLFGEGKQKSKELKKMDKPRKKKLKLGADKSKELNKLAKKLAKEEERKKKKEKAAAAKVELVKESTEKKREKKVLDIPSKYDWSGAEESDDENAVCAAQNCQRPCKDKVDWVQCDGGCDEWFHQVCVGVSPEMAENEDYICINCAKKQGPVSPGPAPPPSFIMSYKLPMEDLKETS

The IC50 is the midpoint of a concentration-inhibition curve.

Test [1] addresses T1, Lysine-specific demethylase 4C (Homo sapiens, UniProt Q9H3R0).
T1 sequence (Q9H3R0 whole entry): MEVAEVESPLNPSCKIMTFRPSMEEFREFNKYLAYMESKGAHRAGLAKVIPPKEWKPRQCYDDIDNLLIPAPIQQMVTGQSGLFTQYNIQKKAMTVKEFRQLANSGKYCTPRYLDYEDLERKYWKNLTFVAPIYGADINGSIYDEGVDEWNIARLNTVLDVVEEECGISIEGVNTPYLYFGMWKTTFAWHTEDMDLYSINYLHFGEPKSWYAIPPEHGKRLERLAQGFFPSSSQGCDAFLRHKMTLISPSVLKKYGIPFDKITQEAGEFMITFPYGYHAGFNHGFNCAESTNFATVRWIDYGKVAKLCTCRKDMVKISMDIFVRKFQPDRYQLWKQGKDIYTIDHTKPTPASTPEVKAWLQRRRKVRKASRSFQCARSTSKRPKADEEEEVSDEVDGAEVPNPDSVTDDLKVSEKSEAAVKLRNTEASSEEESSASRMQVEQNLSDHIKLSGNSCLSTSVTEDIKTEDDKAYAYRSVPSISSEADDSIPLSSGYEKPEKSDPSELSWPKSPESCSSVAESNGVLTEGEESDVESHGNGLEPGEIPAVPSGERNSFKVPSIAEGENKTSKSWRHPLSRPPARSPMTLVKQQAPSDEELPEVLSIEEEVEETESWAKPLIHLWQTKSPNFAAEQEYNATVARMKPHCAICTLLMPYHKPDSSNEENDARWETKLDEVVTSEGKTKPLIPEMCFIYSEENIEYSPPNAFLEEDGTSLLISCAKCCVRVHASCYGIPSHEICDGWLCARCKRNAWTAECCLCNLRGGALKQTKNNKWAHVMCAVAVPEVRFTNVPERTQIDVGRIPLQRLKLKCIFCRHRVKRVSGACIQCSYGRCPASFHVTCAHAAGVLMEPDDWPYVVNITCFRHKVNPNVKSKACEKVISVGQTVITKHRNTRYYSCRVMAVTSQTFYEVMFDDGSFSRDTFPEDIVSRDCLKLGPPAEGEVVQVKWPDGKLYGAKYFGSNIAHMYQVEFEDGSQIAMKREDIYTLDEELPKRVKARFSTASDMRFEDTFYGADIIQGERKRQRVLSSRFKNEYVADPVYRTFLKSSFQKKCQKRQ
Put plainly: Inhibition of KDM4C (unknown origin) using H3K9me3 peptide and 2-oxoglutarate as substrate after 1 hr by FDH-coupled assay.

The target of test [2] is Lysine-specific demethylase 5A (Homo sapiens, UniProt P29375). Put plainly: Inhibition of KDM5A (unknown origin) using H3K4me3 peptide and 2-oxoglutarate as substrate after 1 hr by FDH-coupled assay. The procedure, abridged:
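Run as the FDH-coupled KDM4C format, with compounds in DMSO and activity relative to a DMSO control. KDM4A was used at 0.37 mg/mL final with H3K9me3 peptide. KDM5A was used at 0.64 mg/mL final with H3K4me3 peptide. Values are means of two experiments.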

Regarding `CN(C)NC(=O)CCC(=O)O`, the IC50 in test [1] is 2500 µM; in test [2], 2200 µM.
